Assay outcomes as filed in PubChem BioAssay.
Shown are actives, neighbours in structure and some others; about 1.2% of the full set was active somewhere.
Yeast UUG start = yeast start codon fidelity modulation; AID 602363; activity score, % at 18.7 µM; S. cerevisiae UUG-firefly luciferase reporter, luminescence/redox ratio; 0.13% of 350,000 active;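 active means replicate mean at a twofold rise or more, about +100% in these data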;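 further: firefly luciferase made from a UUG start codon reports start codon fidelity; reporter light over untreated wells divided by growth signal over untreated wells; some hits fall short of that in this replicate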
Cneo AK release = Cryptococcus neoformans cell lysis inducers, primary screen, AK release luminescence, single concentration. C. neoformans lysis, adenylate kinase release luminescence, 4 h; normalised: neutral wells 0, clomiphene wells 100. lysis activity, % at 15 µM. hit rate 0.2% among 360,000. AID 651654, 2012;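 active means mean lysis activity across replicates of at least 80%, whatever share of replicates individually reach that level; inactive means mean lysis activity below 80%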
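Schedule: static 4 h at 37 °C with compound, 1 h detection; system: C. neoformans cells; benchmarks: Clomiphene as positive control; buffer or medium: fresh YPD medium; measure: luminescence rise reflecting yeast cell lysis; measured by: luminescent adenylate kinase detection reagent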
Statin myotox sup = suppressors of statin myotoxicity in C2C12 myotubes, primary screen, cell-based, single point, plate reader; C2C12 myotubes + simvastatin, ATP luminescence, 48 h; scaled: DMSO 0, geranylgeraniol control 100; rescue of ATP level, % at 7.49 µM; hit rate 0.78% among 330,000; AID 602340, 2012;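 active means mean ATP rescue above about 67%, or every replicate alone reaching that limit, limit read from the data, passing the limit was not always enough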;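 further: myotubes were challenged with 10 µM simvastatin during compound exposure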
miR122 inh = miR-122 Renilla sensor signal increase in Huh7, primary screen, miR-122 inhibitor project, cell-based, single point, plate reader | activation (reporter increase), % at 12.5 µM | Huh7 miR-122 Renilla luciferase sensor, 48 h; neutral wells = 0, positive control = 100 | hit rate 0.3% among 340,000 | AID 602342, 2012;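 active means mean replicate activation score at least 90 and every replicate individually at or above 90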;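 further: higher luciferase means less miR-122 activity so hits act as miR-122 inhibitors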
Starred values were filed as active, the others as inactive; x = not tested or not shown; [ ] = another dose, or the depositor's remark.

SMILES	Yeast UUG start	Cneo AK release	Statin myotox sup	miR122 inh
C[C@H](CO)N1C[C@H](C)[C@H](CN(C)C(=O)Nc2ccc3c(c2)OCO3)Oc2ncc(-c3ccc(F)cc3)cc2C1=O	20	91*	-7	19[16.7 µM]
CC(C)CC#Cc1cnc2c(c1)C(=O)N([C@H](C)CO)C[C@@H](C)[C@@H](CN(C)C(=O)c1ccc3c(c1)OCO3)O2	15	89*	13	-3[16.7 µM]
C[C@H]1CN([C@@H](C)CO)C(=O)c2cc(-c3ccc(C#N)cc3)cnc2O[C@H]1CN(C)C(=O)Nc1ccc(F)cc1	15	-1	-1	10[16.7 µM]
C[C@H](CO)N1C[C@H](C)[C@H](CN(C)C(=O)Nc2ccc3c(c2)OCO3)Oc2ncc(C#Cc3ccc(F)cc3)cc2C1=O	-1	-2	74*	-11[16.7 µM]
C[C@@H]1CN([C@@H](C)CO)C(=O)c2cc(-c3ccc(C#N)cc3)cnc2O[C@@H]1CN(C)C(=O)Nc1ccc(F)cc1	51	92*	0	-1[16.7 µM]
Cc1ccc(-c2cnc3c(c2)C(=O)N([C@H](C)CO)C[C@H](C)[C@H](CN(C)CC2CCOCC2)O3)cc1	-14	0	-16	4[16.7 µM]
Cc1ccc(S(=O)(=O)N2CCN(C(=O)COC(=O)c3cc(C)oc3C)CC2)cc1	-16	0	98*	-2
COCC#Cc1cnc2c(c1)C(=O)N([C@@H](C)CO)C[C@@H](C)[C@H](CN(C)C(C)=O)O2	1	-3	19	-1[16.7 µM]
Cc1oc2c(O)c(O)ccc2c(=O)c1-c1cnn(-c2ccccc2)c1	-5	0	x	5
Cc1oc2cc(O)cc(C)c2c(=O)c1-c1cnn(-c2ccccc2)c1	-42	1	89*	-9
Cc1ccc(S(=O)(=O)NCC[C@H]2CC[C@@H](NC(=O)CCN3CCCCC3)[C@H](CO)O2)cc1	0	47	3	x
COc1ccc(S(=O)(=O)Nc2cc(C)ccc2OC)cc1C	-3	-4	10	114*
Cc1cc(S(=O)(=O)Nc2cc(C)c(O)c(C)c2)c(C)s1	-2	0	42	196*
Cc1ccc(S(=O)(=O)Nc2ccc3c(c2)CCC3)cc1	10	-2	x	167*
Cc1cc(S(=O)(=O)Nc2ccc3ccccc3c2)c(C)s1	11	-2	-19	540*
COc1ccc(C)cc1NS(=O)(=O)c1ccc(NS(=O)(=O)c2ccc(NC(C)=O)cc2)cc1	18	6	3	-1
CNC[C@@H]1Oc2cc(C#CC3CCCCC3)ccc2S(=O)(=O)N([C@H](C)CO)C[C@H]1C	x	x	23	-16[16.7 µM]
CNC[C@@H]1OCCCC[C@@H](C)Oc2ccc(NS(=O)(=O)c3cn(C)cn3)cc2C(=O)N([C@H](C)CO)C[C@@H]1C	-8	0	-14	10[16.7 µM]
O=S(=O)(Nc1ccc(-c2ccc(NS(=O)(=O)c3ccccc3)cc2)cc1)c1ccccc1	-6	2	9	69
CS(=O)(=O)c1ccc(NS(=O)(=O)c2ccc3ccccc3c2)cc1	4	-1	8	55
Cc1ccc(S(=O)(=O)Nc2ccc3ccccc3c2)cc1	7	0	0	118*
COC(=O)c1ccc(C)c(NS(=O)(=O)c2ccc(OC)c(OC)c2)c1	-11	2	-8	131*
O=S(=O)(Nc1ccc2ccccc2c1)c1ccccc1	x	x	13	170*
COc1ccc(S(=O)(=O)Nc2ccc3ccccc3c2)cc1C	7	1	30	109*
C[C@H](CO)N1C[C@H](C)[C@@H](CN(C)Cc2ccncc2)OCCCC[C@H](C)Oc2ccc(NC(=O)Cc3ccccc3)cc2C1=O	-2	-1	5	4[16.7 µM]
COc1ccccc1NS(=O)(=O)c1cc(NC(=O)c2cccc(S(=O)(=O)N(C)C)c2)ccc1N1CCOCC1	x	x	-3	135*
COc1ccccc1NS(=O)(=O)c1cc(NC(=S)NCCN2CCOCC2)ccc1N1CCOCC1	x	x	-6	217*
COc1ccccc1NS(=O)(=O)c1cc(NC(=O)/C=C/c2cccs2)ccc1N1CCOCC1	-12	13	18	258*
COc1ccc(CNC(=O)C[C@@H]2C[C@@H]3c4cc(NC(=O)CC5CC5)ccc4O[C@@H]3[C@@H](CO)O2)cc1	-3	1	-6	0[16.7 µM]
CCNC(=S)N1CCC(NC(=O)C2CCCCC2)CC1	-19	2	x	-1
CCNC(=S)NNC(=O)C1CCCCC1	-9	3	x	140*
C[C@H](CO)N1C[C@H](C)[C@@H](CN(C)C(=O)c2ccc(F)cc2)Oc2cc(C3=CCCC3)ccc2S1(=O)=O	x	2	-6	43[16.7 µM]
CN1CCN(S(=O)(=O)c2ccc(Cl)cc2)CC1	-17	-8	-8	-2
CN1CCN(S(=O)(=O)c2ccc(Cc3ccc(S(=O)(=O)N4CCN(C)CC4)cc3)cc2)CC1	x	x	82*	2
CCCC12CN(C(=O)c3ccco3)CC(CCC)(CN(C(=O)c3ccco3)C1)C2=O	-16	-2	77*	-6
COc1ccc(-n2c(C)cc(C=O)c2C)cc1Cl	3	2	102*	0
C[C@H](CO)N1C[C@H](C)[C@@H](CN(C)S(=O)(=O)c2cn(C)cn2)Oc2ccc(NC(=O)CCCCCC(=O)Nc3ccccc3N)cc2CC1=O	7	-1	-39	-1[16.7 µM]
C[C@H]1CN([C@@H](C)CO)S(=O)(=O)c2ccc(C3=CCCCC3)cc2O[C@@H]1CN(C)C	x	x	25	19[16.7 µM]
CC(C)(C)C1CCc2c(sc(NC(=O)C3CCCO3)c2C(N)=O)C1 (centres undefined)	2	-1	96*	17
NC(=O)c1c(NC(=O)C2CCCO2)sc2c1CCC2 (centres undefined)	-14	1	-21	0

Some of these compounds in order of molar mass, low to high:
SMILES	Yeast UUG start	Cneo AK release	Statin myotox sup	miR122 inh
Cc1ccc(S(=O)(=O)Nc2ccc3c(c2)CCC3)cc1	10	-2	x	167*
Cc1cc(S(=O)(=O)Nc2cc(C)c(O)c(C)c2)c(C)s1	-2	0	42	196*
C[C@H](CO)N1C[C@H](C)[C@@H](CN(C)C(=O)c2ccc(F)cc2)Oc2cc(C3=CCCC3)ccc2S1(=O)=O	x	2	-6	43[16.7 µM]

Results in miR122 inh, Statin myotox sup and Cneo AK release (6 entries from above):
SMILES | miR122 inh | Statin myotox sup | Cneo AK release
Cc1ccc(-c2cnc3c(c2)C(=O)N([C@H](C)CO)C[C@H](C)[C@H](CN(C)CC2CCOCC2)O3)cc1 | 4[16.7 µM] | -16 | 0
Cc1ccc(S(=O)(=O)N2CCN(C(=O)COC(=O)c3cc(C)oc3C)CC2)cc1 | -2 | 98* | 0
COCC#Cc1cnc2c(c1)C(=O)N([C@@H](C)CO)C[C@@H](C)[C@H](CN(C)C(C)=O)O2 | -1[16.7 µM] | 19 | -3
Cc1oc2c(O)c(O)ccc2c(=O)c1-c1cnn(-c2ccccc2)c1 | 5 | x | 0
Cc1oc2cc(O)cc(C)c2c(=O)c1-c1cnn(-c2ccccc2)c1 | -9 | 89* | 1
Cc1ccc(S(=O)(=O)NCC[C@H]2CC[C@@H](NC(=O)CCN3CCCCC3)[C@H](CO)O2)cc1 | x | 3 | 47

The list continues.
SMILES	Yeast UUG start	Cneo AK release	Statin myotox sup	miR122 inh
CC(=O)N1c2ccc(S(=O)(=O)N(C)CC(=O)NCc3ccccc3)cc2CC1C (centres undefined)	-7	1	15	0
COc1cc(NC(=O)CN(C)S(=O)(=O)c2ccc3c(c2)CC(C)N3C(C)=O)cc(OC)c1OC (centres undefined)	-6	2	109*	2
C[C@H](CO)N1C[C@H](C)[C@@H](CN(C)C)OCCCC[C@H](C)Oc2ccc(NS(=O)(=O)c3ccccc3)cc2C1=O	x	x	-5	3[16.7 µM]
Cc1ccc(-c2nn(Cc3ccccc3)cc2/C=C/C(=O)O)cc1C	-2	0	86*	0
O=C(Cc1ccccn1)N[C@H]1CC[C@@H](CCn2cc(-c3cccnc3)nn2)O[C@@H]1CO	1	-1	-1	x
N#Cc1cccc(CN2C=NS(=O)(=O)c3ccccc32)c1	-9	2	3	1
O=S1(=O)N=CN(Cc2cccc(F)c2)c2ccccc21	-17	0	x	157*
O=C(O)c1c2c(nc3ccc(S(=O)(=O)N4CCC(C(=O)NCc5ccccc5Cl)CC4)cc13)CCCC2	-14	0	77*	3
C[C@H]1CN([C@@H](C)CO)S(=O)(=O)c2ccc(-c3cccc(F)c3)cc2O[C@H]1CN(C)S(=O)(=O)c1ccccc1	-2	-3	-22	-5[16.7 µM]
